Source: ChEMBL document CHEMBL1275474, “In vitro activity of tigecycline against multidrug-resistant Acinetobacter baumannii and selection of tigecycline-amikacin synergy” (2008)

Test system: Acinetobacter baumannii
Assay: Antimicrobial activity against Acinetobacter baumannii by microdilution method
Type: functional

GENTAMICIN showed an MIC of 0.5 µg/mL.
